AlphaSeq binding of Ab-14 light chain variants to a spike HR2 peptide

The target is the same throughout: PDVDLGDISGINAS, from the HR2 region of SARS-CoV-2 spike.

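This is the validation round: designs drawn from the data on random variants, tested in the same kind of assay. Their group label is 14L_GP_HC (GP: Gaussian process model; HC: hill climbing; a sequence that several methods proposed may carry one label only). In AlphaSeq, yeast of one mating type display the scFv and yeast of the other type display the target. The frequency of each diploid, read from paired DNA barcodes, reflects how well the two displayed proteins bind. The ratio of observed to expected reads was calibrated, replicate by replicate, on BCL2-family standards whose Kd was known from biolayer interferometry. The assay was run in six technical replicates.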

Each scFv is VH, a 15-residue (Gly4Ser)3 linker, VL, as in the parent Ab-14, and differs from it in the CDRs of the light chain only.
VH: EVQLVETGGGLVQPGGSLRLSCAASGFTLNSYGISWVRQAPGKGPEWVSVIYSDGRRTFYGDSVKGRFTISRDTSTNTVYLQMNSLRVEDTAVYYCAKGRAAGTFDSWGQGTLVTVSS
VL: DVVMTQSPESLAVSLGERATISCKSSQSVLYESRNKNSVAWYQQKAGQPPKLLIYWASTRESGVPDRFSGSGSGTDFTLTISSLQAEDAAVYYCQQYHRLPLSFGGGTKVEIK

The parent's light chain CDRs are KSSQSVLYESRNKNSVA, WASTRES, QQYHRLPLS; each variant's own CDRs replace them letter for letter. Affinities are written as log10 Kd with Kd in nM; a lower number is a better binder. "n.d." means that the variant was in the library but no mating with the target was seen in that replicate; the authors take this as a sign of poor binding, and no number exists. Of ten entries with the parent sequence, four were seen in most replicates (averages 0.34 to 2.37), three in one and three in none, so single entries are noisy. In the paper, a design with two or fewer of six values counts as a poor binder. The range of this assay differs from that of the first round, and the authors advise against merging the two. Nonspecific signal, from three strains lacking the peptide, appeared in 4% of pairings of all light chain designs, centred on 2.64 (5% of these signals below 1.59); values are not corrected for it. Also given: how often the same scFv was detected with the empty control strains, with their mean in brackets.

CDR-L1	CDR-L2	CDR-L3	replicates, log10 nM	control signals
KLAQSTLYESRNKNSVA	WASTRLS	QQYHRLPLS	1.08 / 0.51 / 0.98 / 0.53 / 0.52 / n.d.	0 of 18
HSSPSVFYESRNKNSVA	NASTREE	QDYHRLPLS	0.55 / 0.35 / 0.38 / 0.36 / 0.69 / 0.39	1 of 18 (2.55)
HSSQSVLYESRNGNSVA	NASTRES	QQYHRLPLS	0.70 / 0.33 / 0.18 / 0.10 / 0.11 / 0.30	0 of 18
KFSQSVLYESRQSNRVA	NASTRES	QQYHRLPLS	0.41 / 0.59 / 0.33 / 0.24 / 0.51 / 0.54	1 of 18 (2.45)
KFLQSVLYESRDKNSVA	HASTRED	QQYHRLPLS	0.08 / -0.21 / -0.21 / -0.01 / -0.12 / -0.03	1 of 18 (1.78)
HSSPSGLYESRNKNNVA	NASTRES	QQYHRLPLS	0.01 / -0.38 / -0.37 / -0.45 / -0.37 / -0.16	0 of 18
KVSQSWLMESRNKNSVA	EASTRFS	QQYHRLPLS	0.39 / 0.14 / 0.02 / 0.05 / 0.04 / 0.18	2 of 18 (2.69)
KQSQSVLFESRNKNSVA	MASTRES	QQYHRLPLS	0.72 / 1.06 / 1.10 / 1.78 / 0.81 / 0.50	0 of 18
KSLISVLYESNNKNSVA	HASTRED	QQYHRLPLS	1.75 / 1.26 / 0.95 / 1.70 / 1.10 / 1.99	0 of 18
KSSQSFTYESRNVNSVA	NASTRYS	QQYHRLPLS	0.31 / 0.55 / 0.13 / 0.10 / 0.47 / 0.44	3 of 18 (2.45)
KSLWSVLYESNNVNSVA	HASTRED	QQYHRLPLS	2.09 / 1.81 / 2.12 / 2.45 / 2.28 / 2.63	0 of 18
KFSDSELLESRTKNSVA	NASTRES	QQYHRLPLS	0.44 / 0.15 / 0.16 / 0.12 / 0.01 / 0.11	1 of 18 (2.29)
KSLQMQEYESRNKNSVA	HASTRED	QQYHCLPLS	0.29 / 0.10 / -0.04 / 0.13 / -0.06 / -0.32	0 of 18
KSSQSVLFQSRNKNSVA	NASTRES	QQYHRLPLS	1.62 / 1.02 / 0.75 / 1.06 / 1.17 / 0.69	0 of 18
LSSISYLYESPNKNSVA	EASTRED	QQYHRLPLS	0.33 / 0.28 / 0.29 / 0.09 / 0.43 / 0.87	1 of 18 (3.57)
KQSQSVLYEQRNKNSVA	DASTRES	QQYHRLPLS	-0.19 / -0.30 / -0.22 / -0.32 / -0.29 / -0.07	3 of 18 (2.94)
KMEQGVLYESRNKGSVA	DASVRES	QQYHRLPLS	-0.30 / -0.38 / -0.42 / -0.50 / -0.19 / -0.19	0 of 18
HLSDVNLYESRNKNSVA	NASTRES	QQYHRLPLS	0.05 / -0.20 / -0.16 / -0.35 / -0.20 / -0.16	2 of 18 (2.61)
KSSGSVLYESGNKNSVA	HASTRED	QQYHRLPLS	0.87 / 0.51 / 0.42 / 0.49 / 0.42 / 0.73	1 of 18 (2.79)
KSSQSFLYESRNVNSVA	GASTRDS	QQYHRLPLS	0.29 / 0.16 / -0.02 / 0.07 / 0.04 / 0.41	2 of 18 (4.15)
KVSQSILYESGTKNSVA	NASSRES	QQYHRLPLS	0.49 / 0.39 / 0.51 / 0.14 / 0.46 / 0.55	0 of 18
KSSQSWLYESRNKNSVA	GASLRES	QQYHRLPLS	-0.10 / -0.35 / -0.43 / -0.43 / -0.30 / -0.26	1 of 18 (2.08)
KFSPSYLYESRNKNSVA	NASTRES	QQYHRLPLS	0.00 / -0.23 / -0.26 / -0.56 / -0.28 / -0.21	2 of 18 (3.12)
KVSQSFLYESRNKNAVA	GASTRES	QQYHRLPLS	-0.18 / -0.29 / -0.40 / -0.49 / -0.43 / -0.06	1 of 18 (1.40)
KSSQVVLYESRNKNSVA	GASTRES	QQYHRLPLS	0.49 / 1.16 / 0.61 / 0.35 / 0.63 / 0.76	1 of 18 (1.95)
KVSISYLGEKRNKNSVA	EASTRES	QQYHRLPLS	0.19 / 0.14 / 0.26 / 0.04 / 0.02 / 0.23	2 of 18 (2.89)
KSSISYLEESRNKNSVA	EASTREA	QQYHRLPLS	-0.08 / -0.14 / -0.13 / -0.42 / -0.26 / -0.09	0 of 18
KSSYSGLYESRMKNSVA	EASTRES	QQYHRLPLS	0.45 / -0.06 / -0.01 / -0.09 / -0.19 / -0.03	0 of 18
HSSPSVEYESRNKNSVA	NASVRES	QQYHRLPLS	-0.09 / -0.03 / -0.01 / -0.20 / 0.03 / 0.02	0 of 18
KYSQSWGYESRNKNSVA	GASTRES	QQYHRLPLS	0.25 / -0.06 / -0.07 / 0.21 / 0.27 / -0.21	0 of 18

Repeated from above, the 5 best binders with a signal in all replicates:

CDR-L1	CDR-L2	CDR-L3	replicates, log10 nM	control signals
KMEQGVLYESRNKGSVA	DASVRES	QQYHRLPLS	-0.30 / -0.38 / -0.42 / -0.50 / -0.19 / -0.19	0 of 18
KSSQSWLYESRNKNSVA	GASLRES	QQYHRLPLS	-0.10 / -0.35 / -0.43 / -0.43 / -0.30 / -0.26	1 of 18 (2.08)
KVSQSFLYESRNKNAVA	GASTRES	QQYHRLPLS	-0.18 / -0.29 / -0.40 / -0.49 / -0.43 / -0.06	1 of 18 (1.40)
HSSPSGLYESRNKNNVA	NASTRES	QQYHRLPLS	0.01 / -0.38 / -0.37 / -0.45 / -0.37 / -0.16	0 of 18
KFSPSYLYESRNKNSVA	NASTRES	QQYHRLPLS	0.00 / -0.23 / -0.26 / -0.56 / -0.28 / -0.21	2 of 18 (3.12)

Values reported by Li et al. 2023, doi:10.1038/s41467-023-39022-2 (FLAb copy).